What was measured:
[1] = target: IDO1 (Homo sapiens, UniProt P14902); experiment: HeLa cell-based assay for inhibiting IDO1; conditions: read-out: EC50/μM IDO1; HeLa cells, 100 ng/ml IFN-γ, 0.3 mM Trp, 48 hours incubation; tested form: TFA
[2] = target: TDO (Homo sapiens, UniProt P48775); experiment: SW-48 cell-based assay for inhibiting TDO; conditions: read-out: EC50/μM TDO; SW48 cells, 0.3 mM Trp, 48 hours incubation; tested form: TFA

By UniProt entry, the sequences of proteins in these tests, tags left out.
UniProt P14902, whole entry: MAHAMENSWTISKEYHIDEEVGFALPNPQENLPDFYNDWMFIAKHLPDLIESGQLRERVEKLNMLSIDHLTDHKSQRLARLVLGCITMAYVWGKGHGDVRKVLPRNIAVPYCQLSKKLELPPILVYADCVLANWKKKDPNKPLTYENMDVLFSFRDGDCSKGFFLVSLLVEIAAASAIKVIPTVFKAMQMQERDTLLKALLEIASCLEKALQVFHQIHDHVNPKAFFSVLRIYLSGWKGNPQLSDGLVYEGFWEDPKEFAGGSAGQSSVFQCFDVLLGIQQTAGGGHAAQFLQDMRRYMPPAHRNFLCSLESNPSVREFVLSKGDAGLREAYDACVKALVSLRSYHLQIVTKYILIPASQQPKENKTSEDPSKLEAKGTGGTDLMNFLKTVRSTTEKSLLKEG
UniProt P48775, whole entry: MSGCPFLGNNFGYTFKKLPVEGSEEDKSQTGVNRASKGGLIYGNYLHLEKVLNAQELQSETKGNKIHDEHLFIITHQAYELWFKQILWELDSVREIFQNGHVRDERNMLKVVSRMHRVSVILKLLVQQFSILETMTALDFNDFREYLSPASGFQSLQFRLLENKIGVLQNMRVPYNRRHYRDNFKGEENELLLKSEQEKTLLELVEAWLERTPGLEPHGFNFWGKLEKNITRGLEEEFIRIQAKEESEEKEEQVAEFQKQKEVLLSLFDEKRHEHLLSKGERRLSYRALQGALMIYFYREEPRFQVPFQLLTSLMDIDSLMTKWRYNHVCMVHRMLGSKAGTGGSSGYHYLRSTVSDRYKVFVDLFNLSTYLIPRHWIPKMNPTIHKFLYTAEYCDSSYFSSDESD

Compound	EC50 [1] [µM]	EC50 [2] [µM]
COc1ccc(C2=CSC3=N[C@@H](CCCCNC(=O)Nc4cccc5ccccc45)CN23)cc1	6.2	9.4
O=C(NCCCC[C@H]1CN2C(c3ccc(Cl)cc3)=CSC2=N1)Nc1ccccc1	2.3	12.2
